Measured values reported in ChEMBL document CHEMBL1148593, “Matrix metalloproteinase target family landscape: a chemometrical approach to ligand selectivity based on protein binding site analysis” (J Med Chem, 2006).

Legend:
Collagenase 3 = Collagenase 3 (Homo sapiens, UniProt P45452); assay: Binding affinity to MMP13
Interstitial collagenase = target: T1, Interstitial collagenase (Homo sapiens, UniProt P03956); assay: Binding affinity to MMP1
T1 sequence (P03956 whole entry): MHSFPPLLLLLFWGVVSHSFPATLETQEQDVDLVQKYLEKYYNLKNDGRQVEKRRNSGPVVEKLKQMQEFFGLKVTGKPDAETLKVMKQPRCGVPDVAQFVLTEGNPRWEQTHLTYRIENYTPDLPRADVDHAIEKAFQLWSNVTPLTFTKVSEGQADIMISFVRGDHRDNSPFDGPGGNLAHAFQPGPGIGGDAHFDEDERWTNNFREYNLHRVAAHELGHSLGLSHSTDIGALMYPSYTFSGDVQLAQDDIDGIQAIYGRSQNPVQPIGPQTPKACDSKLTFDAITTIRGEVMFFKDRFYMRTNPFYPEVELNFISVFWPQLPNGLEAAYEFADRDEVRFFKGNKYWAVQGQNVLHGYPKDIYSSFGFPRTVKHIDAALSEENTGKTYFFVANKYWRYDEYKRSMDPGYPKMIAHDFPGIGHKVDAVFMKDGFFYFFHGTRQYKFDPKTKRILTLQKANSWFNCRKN

pKi (Interstitial collagenase)	SMILES	pIC50 (Collagenase 3)
–	O=C(O)C1Cc2ccccc2CN1S(=O)(=O)CCc1ccc(-c2ccc(Cl)cc2)cc1 (configuration not stated)	7.70
5.60	CNC(=O)C1CCCCNC(=O)CCC(C(=O)O)NC(CCc2ccccc2)C(=O)N1 (configuration not stated)	–

pIC50, pKi: −log10 of the molar value.
